# Values quoted from earlier work as cited in patent publication US6653504B1, “Non-hygroscopic salts of active ingredients having therapeutical and/or nutritional activities and orally administrable compositions containing same” (Sigma-Tau Industrie Farmaceutiche Riunite S.p.A., priority 1999, dated 2003).
# Conditions: background statement, no conditions given; cited from earlier work
substance,measurement,value
acetyl L(−)-carnitine acid fumarate and tartrate [acetyl L(−)-carnitine tartrate],Hygroscopicity of known salts,strongly hygroscopic
